Experimental data from IntAct's records for PubMed 31515488.

B1: TNFAIP3-interacting protein 1 (Homo sapiens), Q15025 (parent)
chain: MEGRGPYRIYDPGGSVPSGEASAAFERLVKENSRLKEKMQGIKMLGELLEESQMEATRLRQKAEELVKDNELLPPPSPSLGSFDPLAELTGKDSNVTASPTAPACPSDKPAPVQKPPSSGTSSEFEVVTPEEQNSPESSSHANAMALGPLPREDGNLMLHLQRLETTLSVCAEEPDHGQLFTHLGRMALEFNRLASKVHKNEQRTSILQTLCEQLRKENEALKAKLDKGLEQRDQAAERLREENLELKKLLMSNGNKEGASGRPGSPKMEGTGKKAVAGQQQASVTAGKVPEVVALGAAEKKVKMLEQQRSELLEVNKQWDQHFRSMKQQYEQKITELRQKLADLQKQVTDLEAEREQKQRDFDRKLLLAKSKIEMEETDKEQLTAEAKELRQKVKYLQDQLSPLTRQREYQEKEIQRLNKALEEALSIQTPPSSPPTAFGSPEGAGALLRKQELVTQNELLKQQVKIFEEDFQRERSDRERMNEEKEELKKQVEKLQAQVTLSNAQLKAFKDEEKAREALRQQKRKAKASGERYHVEPHPEHLCGAYPYAYPPMPAMVPHHGFEDWSQIRYPPPPMAMEHPPPLPNSRLFHLPEYTWRLPCGGVRNPNQSSQVMDPPTARPTEPESPKNDREGPQ
partner: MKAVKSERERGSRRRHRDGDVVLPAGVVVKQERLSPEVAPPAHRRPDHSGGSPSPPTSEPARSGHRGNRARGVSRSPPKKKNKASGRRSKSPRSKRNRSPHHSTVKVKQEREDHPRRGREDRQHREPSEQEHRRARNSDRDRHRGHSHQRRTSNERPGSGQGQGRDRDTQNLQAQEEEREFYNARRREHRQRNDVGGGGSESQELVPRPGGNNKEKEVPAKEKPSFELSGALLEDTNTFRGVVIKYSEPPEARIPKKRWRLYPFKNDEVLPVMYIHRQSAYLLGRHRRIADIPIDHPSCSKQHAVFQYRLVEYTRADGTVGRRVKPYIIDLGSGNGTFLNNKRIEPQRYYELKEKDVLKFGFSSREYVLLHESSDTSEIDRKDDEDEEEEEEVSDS
B2: Zinc finger protein 366 (Homo sapiens), Q8N895 (parent)
chain: MQKEMKMIKDEDVHFDLAVKKTPSFPHCLQPVASRGKAPQRHPFPEALRGPFSQFRYEPPPGDLDGFPGVFEGAGSRKRKSMPTKMPYNHPAEEVTLALHSEENKNHGLPNLPLLFPQPPRPKYDSQMIDLCNVGFQFYRSLEHFGGKPVKQEPIKPSAVWPQPTPTPFLPTPYPYYPKVHPGLMFPFFVPSSSPFPFSRHTFLPKQPPEPLLPRKAEPQESEETKQKVERVDVNVQIDDSYYVDVGGSQKRWQCPTCEKSYTSKYNLVTHILGHSGIKPHACTHCGKLFKQLSHLHTHMLTHQGTRPHKCQVCHKAFTQTSHLKRHMMQHSEVKPHNCRVCGRGFAYPSELKAHEAKHASGRENICVECGLDFPTLAQLKRHLTTHRGPIQYNCSECDKTFQYPSQLQNHMMKHKDIRPYICSECGMEFVQPHHLKQHSLTHKGVKEHKCGICGREFTLLANMKRHVLIHTNIRAYQCHLCYKSFVQKQTLKAHMIVHSDVKPFKCKLCGKEFNRMHNLMGHMHLHSDSKPFKCLYCPSKFTLKGNLTRHMKVKHGVMERGLHSQGLGRGRIALAQTAGVLRSLEQEEPFDLSQKRRAKVPVFQSDGESAQGSHCHEEEEEDNCYEVEPYSPGLAPQSQQLCTPEDLSTKSEHAPEVLEEACKEEKEDASKGEWEKRSKGDLGAEGGQERDCAGRDECLSLRAFQSTRRGPSFSDYLYFKHRDESLKELLERKMEKQAVLLGI
B3: PHD finger protein 21A (Homo sapiens), Q96BD5 (parent)
chain: MELQTLQEALKVEIQVHQKLVAQMKQDPQNADLKKQLHELQAKITALSEKQKRVVEQLRKNLIVKQEQPDKFQIQPLPQSENKLQTAQQQPLQQLQQQQQYHHHHAQQSAAASPNLTASQKTVTTASMITTKTLPLVLKAATATMPASVVGQRPTIAMVTAINSQKAVLSTDVQNTPVNLQTSSKVTGPGAEAVQIVAKNTVTLVQATPPQPIKVPQFIPPPRLTPRPNFLPQVRPKPVAQNNIPIAPAPPPMLAAPQLIQRPVMLTKFTPTTLPTSQNSIHPVRVVNGQTATIAKTFPMAQLTSIVIATPGTRLAGPQTVQLSKPSLEKQTVKSHTETDEKQTESRTITPPAAPKPKREENPQKLAFMVSLGLVTHDHLEEIQSKRQERKRRTTANPVYSGAVFEPERKKSAVTYLNSTMHPGTRKRGRPPKYNAVLGFGALTPTSPQSSHPDSPENEKTETTFTFPAPVQPVSLPSPTSTDGDIHEDFCSVCRKSGQLLMCDTCSRVYHLDCLDPPLKTIPKGMWICPRCQDQMLKKEEAIPWPGTLAIVHSYIAYKAAKEEEKQKLLKWSSDLKQEREQLEQKVKQLSNSISKCMEMKNTILARQKEMHSSLEKVKQLIRLIHGIDLSKPVDSEATVGAISNGPDCTPPANAATSTPAPSPSSQSCTANCNQGEETK
B4: Zinc finger protein SNAI1 (Homo sapiens), O95863 (parent)
chain: MPRSFLVRKPSDPNRKPNYSELQDSNPEFTFQQPYDQAHLLAAIPPPEILNPTASLPMLIWDSVLAPQAQPIAWASLRLQESPRVAELTSLSDEDSGKGSQPPSPPSPAPSSFSSTSVSSLEAEAYAAFPGLGQVPKQLAQLSEAKDLQARKAFNCKYCNKEYLSLGALKMHIRSHTLPCVCGTCGKAFSRPWLLQGHVRTHTGEKPFSCPHCSRAFADRSNLRAHLQTHSDVKKYQCQACARTFSRMSLLHKHQESGCSGCPR
partner: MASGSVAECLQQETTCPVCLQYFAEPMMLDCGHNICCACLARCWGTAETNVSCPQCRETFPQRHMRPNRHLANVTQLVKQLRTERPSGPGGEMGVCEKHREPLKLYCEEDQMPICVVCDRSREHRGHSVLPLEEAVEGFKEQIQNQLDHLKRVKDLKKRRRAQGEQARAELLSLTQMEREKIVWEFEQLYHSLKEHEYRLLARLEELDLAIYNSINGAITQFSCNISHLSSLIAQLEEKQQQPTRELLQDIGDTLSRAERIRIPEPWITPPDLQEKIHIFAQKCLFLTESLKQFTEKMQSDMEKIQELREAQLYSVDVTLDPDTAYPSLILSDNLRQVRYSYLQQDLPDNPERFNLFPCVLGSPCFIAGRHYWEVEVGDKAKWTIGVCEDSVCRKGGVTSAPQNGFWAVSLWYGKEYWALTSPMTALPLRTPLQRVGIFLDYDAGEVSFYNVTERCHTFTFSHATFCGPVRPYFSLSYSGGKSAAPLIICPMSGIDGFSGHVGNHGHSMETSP

Variants of: B1
Settings: with snip1_human SNIP1, Q8TAD8

| effect of a mutation on the interaction | Variant |
| --- | --- |
| with no effect | K30T |
| with no effect | V16M |

Variants of: B2
Settings: with cep70_human CEP70, Q8NHQ1

| effect of a mutation on the interaction | Variant |
| --- | --- |
| with no effect | V601M |
| with no effect | E665Q |

Variants of: B2
Settings: with psa3_human PSMA3, P25788

| effect of a mutation on the interaction | Variant |
| --- | --- |
| with no effect | V601M |
| with no effect | E665Q |

Variants of: B3
Settings: with nup62_human NUP62, P37198

| effect of a mutation on the interaction | Variant |
| --- | --- |
| with no effect | R347H |

Variants of: B3
Settings: with fhl3_human FHL3, Q13643

| effect of a mutation on the interaction | Variant |
| --- | --- |
| with no effect | R347H |

Variants of: B3
Settings: with traf1_human TRAF1, Q13077

| effect of a mutation on the interaction | Variant |
| --- | --- |
| with no effect | R347H |

Variants of: B4
Settings: with tri27_human TRIM27, P14373

| effect of a mutation on the interaction | Variant |
| --- | --- |
| with no effect | V118A |
